Experimental data as given in EP4291198B1, “THERAPEUTICALLY ACTIVE COMPOUNDS AND THEIR METHODS OF USE” (dated 2026).
Like-named read-outs stand apart in the source and are kept apart here.

Legend:
IDH1 R132H = IDH1 R132H homodimer enzymatic assay, NADPH depletion (diaphorase/resazurin)
Protocol: (§1) A test compound is prepared as 10 mM stock in DMSO and diluted to 50X final concentration in DMSO, for a 50 µl reaction mixture. IDH enzyme activity converting alpha-ketoglutarate to 2-hydroxyglutaric acid is measured using a NADPH depletion assay. In the assay the remaining cofactor is measured at the end of the reaction with the addition of a catalytic excess of diaphorase and resazurin, to generate a fluorescent signal in proportion to the amount of NADPH remaining. IDH1-R132 homodimer enzyme is diluted to 0.125 µg/ml in 40 µl of Assay Buffer(150 mM NaCl, 20 mM Tris-Cl pH 7.5, 10 mM MgCl2, 0.05% BSA, 2 mM b-mercaptoethanol); 1 µl of test compound dilution in DMSO is added and the mixture is incubated for 60 minutes at room temperature. The reaction is started with the addition of 10 µl of Substrate Mix (20 µl NADPH, 5 mM alpha-ketoglutarate, in Assay Buffer) and the mixture is incubated for 90 minutes at room temperature. The reaction is terminated with the addition of 25 µl of Detection Buffer (36 µg/ml diaphorase, 30 mM resazurin, in 1X Assay Buffer), and is incubated for 1 minute before reading on a SpectraMax platereader at Ex544/Em590.
as §1, with “remaining. IDH1-R132H” for “remaining. IDH1-R132”, “mM b-mercaptoethanol) containing 5 µM NADPH and 37.5 µM NADP;” for “mM b-mercaptoethanol);”, “for 60” for “for 90”

[1] = system: IDH1 wt / IDH1 R132H heterodimer; assay: IDH1 wt / IDH1 R132H heterodimer enzymatic assay, NADPH depletion (diaphorase/resazurin)
Protocol: In the primary reaction, the reduction of α-KG acid to 2HG is accompanied by a concomitant oxidation of NADPH to NADP. The amount of NADPH remaining at the end of the reaction time is measured in a secondary diaphorase/resazurin reaction in which the NADPH is consumed in a 1:1 molar ratio with the conversion of resazurin to the highly fluorescent resorufin.
The primary reaction is performed in a volume of 50 µL 1X Buffer (150 mM NaCl, 20 mM Tris 7.5, 10 mM MgCl2, 0.05% (w/v) bovine serum albumin), contained 0.25 ug/mL (2.7 nM) IDH1 wt / IDH1 R132H heterodimer, 0.3 mM alpha-ketoglutarate, 4 µM NADPH, and either 300 µM NADP (saturated) or 30 µM NADP (without saturation), and 1 uL of 50X compound in DMSO. The mixture of compound, enzyme, and cofactor is pre-incubated at room temperature for 1 hr prior to the addition of alpha-ketoglutarate. To perform the secondary reaction, 10 uL of 1X buffer containing 36 µg/ml diaphorase and 30 mM resazurin is added to the primary reaction and incubated for a further 5 minutes at 25 °C. Florescence is read on a Spectramax platereader at Ex 544 Em 590. Compounds or compound dilutions are prepared in 100% DMSO concentration and diluted 1:50 into the final reaction. IDH1 wt / IDH1 R132C is assayed under similar conditions except that 1X Buffer is 50 mM K2HP04, pH 6.5; 10 mM MgCl2; 10% glycerol; 0.03% (w/v) bovine serum albumin and final concentrations are 0.4 ug/mL (4.3 nM) IDH1 wt / IDH1 R132C heterodimer, 0.02 mM alpha-ketoglutarate, 4 uM NADPH, and either 300 µM NADP (saturated) or 30 µM NADP (without saturation). IC50s are determined.
(§2) IDH1 or IDH2 wildtype (wt) and mutant heterodimers are expressed and purified by methods known in the art. For example, IDH1wt/R132m heterodimer is expressed and purified as follows. Co-expression of IDH1wt-his and IDH1R132C-flag is carried out in sf9 insect cells. Cells (25g) are resuspended in 250 ml of 50mM Tirs, 500mM NaCl, pH7.4, at 4°C with stirring. Cells are disrupted with 4 passes through an M-Y110 Micro fluidizer (Microfluidics) set to 500 psi, and then centrifuged at 22,000 rcf for 20min at 4°C. The supernatant is harvested and loaded at 15cm/h on a Histrap FF 5*1ml column (GE) which is equilibrated with 50mM Tirs, 500mM NaCl, pH7.4. Host cell contaminants are removed by washing the column with equilibration buffer followed by equilibration buffer containing 20mM imidazole and 60mM imidazole to baseline. IDH1wt-his homodimer and IDH1wt-his / IDH1R132C-flag are eluted by equilibration buffer containing 250mM imidazole. Fractions eluted by 250mM imidazole are pooled together and loaded at 15cm/h onto a column pre-packed with 10ml ANTI-FLAG® M2 Affinity Gel (Sigma), the column is equilibrated with 50mM Tris, 500mM NaCl, pH7.4. After washing with equilibration buffer, IDH1wt-his/IDH1R132C-flag heterodimer is eluted by equilibration buffer containing flag peptide (0.2mg/ml). Aliquots of IDH1wt-his/IDH1R132C-flag are flash frozen in liquid N2 and stored at -80°C. Same conditions are used for the purification of IDH1wt-his/IDH1R132H-flag.

IDH2 R140Q = IDH2 R140Q enzymatic assay, cofactor depletion (diaphorase/resazurin)
Protocol: Compounds are assayed for IDH2 R140Q inhibitory activity through a cofactor depletion assay. […] The reaction is terminated by the addition of a second enzyme, diaphorase, and a corresponding substrate, resazurin. Diaphorase reduces resazurin to the highly fluorescent resorufin with the concomitant oxidation of NADPH to NADP, both halting the IDH2 reaction by depleting the available cofactor pool and facilitating quantitation of the amount of cofactor remaining after a specific time period through quantitative production of an easily detected fluorophore.
Specifically, into each of 12 wells of a 384-well plate, 1 µl of 100x compound dilution series is placed, followed by the addition of 40 µl of buffer (50 mM potassium phosphate (K2HPO4), pH 7.5; 150 mM NaCl; 10 mM MgCl2, 10% glycerol, 0.05% bovine serum albumin, 2 mM beta-mercaptoethanol) containing 0.25 µg/ml IDH2 R140Q protein. The test compound is then incubated for one hour at room temperature with the enzyme; before starting the IDH2 reaction with the addition of 10 µl of substrate mix containing 4 µM NADPH and 1.6 mM α-KG in the buffer described above. After a further 16 hours of incubation at room temperature, the reaction is halted, and the remaining NADPH measured through conversion of resazurin to resorufin by the addition of 25 µl Stop Mix (36 µg/ml diaphorase enzyme and 60 µM resazurin; in buffer). After one minute of incubation the plate is read on a plate reader at Ex544/Em590.
For determination of the inhibitory potency of compounds against IDH2 R140Q in an assay format similar to the above, a similar procedure is performed, except that the final testing concentration is 0.25 µg/ml IDH2 R140Q protein, 4 µM NADPH and 1.6 mM α-KG.
For determination of the inhibitory potency of compounds against IDH2 R140Q in a high throughput screening format, a similar procedure is performed, except that 0.25 µg/ml IDH2 R140Q protein is utilized in the preincubation step, and the reaction is started with the addition of 4 µM NADPH and 8 µM α-KG.
Specifically, into each of 12 wells of a 384-well plate, 1 µl of 50x compound dilution series is placed, followed by the addition of 40 µl of buffer (50 mM potassium phosphate (K2HPO4), pH 7.5; 150 mM NaCl; 10 mM MgCl2, 10% glycerol, 0.05% bovine serum albumin, 2 mM beta-mercaptoethanol) containing 0.39 µg/ml IDH2 R140Q protein, 5 uM NADPH and 750 uM NADP. The test compound is then incubated for 16 hrs at room temperature with the enzyme and cofactors before starting the IDH2 reaction with the addition of 10 µl of substrate mix containing 8 mM α-KG (final concentration 1.6 mM) in the buffer described above. After a further 1 hour of incubation at room temperature, the reaction is halted, and the remaining NADPH measured through conversion of resazurin to resorufin by the addition of 25 µl Stop Mix (36 µg/ml diaphorase enzyme and 60 µM resazurin; in buffer). After one minute of incubation the plate is read on a plate reader at Ex544/Em590.

IDH1 WT = assay: IDH1 wild-type enzymatic assay (NADPH/diaphorase/resazurin type)
WT/R140Q = assay: IDH2 WT/R140Q heterodimer enzymatic assay
Protocol: as §2

IDH2 WT = assay: IDH2 wild-type enzymatic assay
[2] = read-out: IDH1 R132H IC50 1h, 1h
[3] = read-out: IDH1 R132H IC50 16h, 16h
[4] = read-out: WT/R132H IC50 16 h, 16 h
[5] = read-out: IDH2 R140Q IC50 1h, 1h
[6] = read-out: IDH2 R140Q IC50 16h, 16h
[7] = read-out: IDH1 WT IC50 16h, 16h
[8] = read-out: WT/R140Q IC50 16 h, 16 h
[9] = read-out: IDH2 WT IC50 16h, 16h

Molecule | IC50 (IDH1 R132H; [2]) | IC50 (IDH1 R132H; [3]) | IC50 ([1]; read-out: WT/R132H IC50 1h, 1h) | IC50 [1, 4] | IC50 (IDH2 R140Q; [5]) | IC50 (IDH2 R140Q; [6]) | IC50 (IDH1 WT; read-out: IDH1 WT IC50 1h, 1h) | IC50 (IDH1 WT; [7]) | IC50 (WT/R140Q; read-out: WT/R140Q IC50 1h, 1h) | IC50 (WT/R140Q; [8]) | IC50 (IDH2 WT; read-out: IDH2 WT IC50 1h, 1h) | IC50 (IDH2 WT; [9])
6,6'-(6,6'-disulfanediylbis(pyridine-6,2-diyl))bis(N2,N4-bis((R)-1,1,1 -trifluoropropan-2-yl)-1,3,5-triazine-2,4-diamine) | 501 nM | 222 nM | 415 nM | 591 nM | 1300 nM | 3510 nM | 1520 nM | 832 nM | – | – | – | –
C[C@@H](Nc1nc(N[C@H](C)C(F)(F)F)nc(-c2cccc([S+](C)[O-])n2)n1)C(F)(F)F (stereo partly shown) | 451 nM | – | 81 nM | 69 nM | 552 nM | 146 nM | 4880 nM | 161 nM | 1710 nM | 264 nM | 1200 nM | 209 nM
C[C@@H](Nc1nc(N[C@H](C)C(F)(F)F)nc(-c2cccc(S(C)(=O)=O)n2)n1)C(F)(F)F | 168 nM | 394 nM | 22 nM | 34 nM | 430 nM | 59 nM | 1580 nM | 75 nM | 1230 nM | 125 nM | 910 nM | 98 nM
CSc1cccc(-c2nc(N[C@H](C)C(F)(F)F)nc(N[C@H](C)C(F)(F)F)n2)n1 | 36 nM | – | 14 nM | 2 nM | 193 nM | 21 nM | 1590 nM | 42 nM | 488 nM | 40 nM | 410 nM | 37 nM
C[C@@H](Nc1nc(N[C@H](C)C(F)(F)F)nc(-c2cccc(S)n2)n1)C(F)(F)F | 576 nM | 711 nM | 717 nM | 246 nM | 2340 nM | 1560 nM | 5550 nM | 1260 nM | – | 7720 nM | – | 5060 nM
